SMILES strings stand for the structures.

Chains of the proteins cited; added tags and fusions are not shown.
UniProt P33535, whole entry: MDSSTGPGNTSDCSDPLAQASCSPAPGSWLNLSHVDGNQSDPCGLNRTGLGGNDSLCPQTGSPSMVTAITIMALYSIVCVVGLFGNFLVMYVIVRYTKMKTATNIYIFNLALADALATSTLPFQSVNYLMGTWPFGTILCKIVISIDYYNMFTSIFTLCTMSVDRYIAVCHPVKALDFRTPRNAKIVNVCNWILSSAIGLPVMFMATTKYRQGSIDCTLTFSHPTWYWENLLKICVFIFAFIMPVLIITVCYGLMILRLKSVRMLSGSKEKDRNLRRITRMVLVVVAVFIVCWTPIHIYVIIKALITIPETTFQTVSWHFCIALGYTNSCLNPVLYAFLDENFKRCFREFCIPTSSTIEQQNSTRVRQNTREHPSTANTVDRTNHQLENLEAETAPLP

This assay deals with Mu-type opioid receptor (Rattus norvegicus, UniProt P33535). As to the kind of experiment: Displacement of [3H]DAMGO from mu opioid receptor in rat brain membranes incubated for 45 mins by liquid scintillation counting method. The class given is cell membranes, Membrane. The method, boiled down: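 Rat brain membranes (cerebella removed; 0.3–0.5 mg protein) in 50 mM Tris-HCl, pH 7.4, were incubated 45 min at 35 °C with 1 nM [3H]DAMGO (MOR) or 0.5 nM [3H][Ile5,6]deltorphin II (DOR) plus varied test concentrations. Nonspecific binding was set with 10 μM naloxone. Samples were GF/C filtered, washed and scintillation counted. Ki was obtained by Cheng–Prusoff; duplicates, 3–4 experiments.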
Background: In a radioligand displacement assay an active substance lowers the binding of a labelled ligand.

`CO[C@@]12CC[C@@H](N[C@@H](C)C(=O)O)[C@@H]3Oc4c(O)ccc5c4[C@@]31CCN(C)[C@@H]2C5` yielded a Ki of 1.9 nM. This lies in the single-digit nanomolar range.

For `CO[C@@]12CC[C@H](N[C@@H](C)C(=O)O)[C@@H]3Oc4c(O)ccc5c4[C@@]31CCN(C)[C@@H]2C5`, the Ki is 0.77 nM.

In general, Ki refers to a measure of affinity in units of concentration, obtained from inhibition or displacement.
